We go through one molecule from BindingDB's records for patent WO2023285347 (Novo Nordisk, 2023).

The target in test [1] is T1, Corticotropin-releasing factor receptor 2 (Homo sapiens, UniProt Q13324).
T1 sequence (Q13324 whole entry): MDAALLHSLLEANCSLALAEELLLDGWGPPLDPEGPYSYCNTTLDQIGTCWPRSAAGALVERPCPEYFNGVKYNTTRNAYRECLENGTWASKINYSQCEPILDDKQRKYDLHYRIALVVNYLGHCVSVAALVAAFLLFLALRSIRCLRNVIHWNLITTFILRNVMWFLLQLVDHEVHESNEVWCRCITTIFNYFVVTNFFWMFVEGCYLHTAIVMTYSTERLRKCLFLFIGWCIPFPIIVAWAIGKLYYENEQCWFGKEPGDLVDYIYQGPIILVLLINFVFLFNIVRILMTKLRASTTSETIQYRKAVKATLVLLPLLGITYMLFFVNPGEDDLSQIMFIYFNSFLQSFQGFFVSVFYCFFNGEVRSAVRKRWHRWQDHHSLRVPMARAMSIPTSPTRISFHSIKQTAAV
Kind of test: Scintillation Proximity Assay. How it is done: (§1) Receptor SPA binding assays were performed in white 96-well plates in a total volume of 200 mI per well. Freeze dried analogues were dissolved in 80% dimethyl sulfoxide, 20% H20 and serial dilutions (1:10) were performed in binding buffer (20 mM Tris-HCI pH 7.4, 5 mM MgAc2, 2 mM EGTA and 0.1% ovalbumin); the final assay concentrations ranging from 1 mM to 1 pM. Analogues and 7.5-50 pg of CRFi receptor membranes/well or 0.5 pg of CRF2 receptor membranes/well were added to assay plates. A mix of wheat germ agglutinin coated SPA beads (PerkinElmer) and [125l]-Sauvagine (PerkinElmer), both in binding buffer, was added to yield 0.4 mg beads/well and 50,000 cpm of radio ligand per well. Plates were sealed and incubated at 25 °C for 2 hours in a plate shaker set at 400 rpm and thereafter centrifuged at 1500 rp for 10 minutes. SPA plates were let to stand at room temperature for about 16 hours prior to reading on microplate scintillation counter. Displacement of radioligand was measured as reduction in luminescence, and IC50 values were calculated by nonlinear regression analysis of four parameter sigmoidal dose-response curves.
A general note: In a scintillation proximity assay essentially only radioactivity close to the scintillant gives light.

The target of test [2] is T2, Corticotropin-releasing factor receptor 1 (Homo sapiens, UniProt P34998).
T2 sequence (P34998 whole entry): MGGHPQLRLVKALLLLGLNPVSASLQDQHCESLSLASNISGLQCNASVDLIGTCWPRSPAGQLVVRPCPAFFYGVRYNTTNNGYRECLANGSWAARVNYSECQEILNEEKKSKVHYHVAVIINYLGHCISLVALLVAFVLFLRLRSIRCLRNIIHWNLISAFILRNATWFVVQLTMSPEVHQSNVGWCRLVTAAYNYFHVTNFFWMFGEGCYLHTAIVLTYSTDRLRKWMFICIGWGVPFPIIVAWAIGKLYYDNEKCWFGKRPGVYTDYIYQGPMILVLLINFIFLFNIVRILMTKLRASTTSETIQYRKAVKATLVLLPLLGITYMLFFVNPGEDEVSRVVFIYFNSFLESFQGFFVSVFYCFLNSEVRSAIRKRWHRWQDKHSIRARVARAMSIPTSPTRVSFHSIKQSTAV
Kind of test: Scintillation Proximity Assay. The method, then: as §1

As a reminder, the IC50 is the concentration at which inhibition is half-maximal.

Structures are written as SMILES.

For `CC[C@H](C)[C@H](N)C(=O)N[C@H](C(=O)N[C@@H](CC(C)C)C(=O)N[C@@H](CO)C(=O)N[C@@H](CC(C)C)C(=O)N[C@@H](CC(=O)O)C(=O)N[C@H](C(=O)N1CCC[C@H]1C(=O)N[C@H](C(=O)NCC(=O)N[C@@H](CC(C)C)C(=O)N[C@@H](CC(C)C)C(=O)N[C@@H](CCC(N)=O)C(=O)N[C@H](C(=O)N[C@@H](CC(C)C)C(=O)N[C@@H](CC(C)C)C(=O)N[C@@H](CCC(=O)O)C(=O)N[C@@H](CCC(N)=O)C(=O)N[C@@H](C)C(=O)N[C@@H](CCCNC(=N)N)C(=O)N[C@@H](C)C(=O)N[C@@H](CCCNC(=N)N)C(=O)N[C@@H](C)C(=O)N[C@@H](C)C(=O)N[C@@H](CCCNC(=N)N)C(=O)N[C@@H](CCC(=O)O)C(=O)N[C@@H](CCC(N)=O)C(=O)N[C@@H](C)C(=O)N[C@H](C(=O)N[C@H](C(=O)N[C@@H](CC(N)=O)C(=O)N[C@@H](C)C(=O)N[C@@H](CCCNC(=N)N)C(=O)N[C@H](C(=O)N[C@@H](CC(C)C)C(=O)N[C@@H](C)C(=O)N[C@@H](CCCNC(=N)N)C(=O)N[C@H](C(N)=O)C(C)C)[C@@H](C)CC)[C@@H](C)O)[C@@H](C)O)[C@@H](C)CC)[C@@H](C)CC)C(C)C)C(C)C` [WO2023285347, Compound 2], the results for the half-inhibitory concentration (IC50) in test [1] and in test [2] were 0.58 nM and 447 nM, respectively.
